Data: patent US20130203167A1

Legend:
full-length WDR5 [1] = target: full-length WDR5 (UniProt P61964); assay: sedimentation velocity, 1:1 stoichiometric ratio
full-length WDR5 [2] = target: full-length WDR5 (UniProt P61964); assay: sedimentation velocity analytical ultracentrifugation, in solution; sedimentation velocity AUC, MLL1 construct, not the peptide
[3] = target: WDR5-RbBP5-Ash2L subcomplex (UniProt P61964); assay: sedimentation velocity of the assembled MLL1 core complex (MLL1 with the WDR5-RbBP5-Ash2L subcomplex), without competitor peptide; reference for the shift to 4.6 s* with the Win peptide

s* value of the complex formed (full-length WDR5 [1]): 2.87 s
Kd (full-length WDR5 [2]): 120 nM
s* of the sedimentation peak of the MLL1 core complex (holocomplex, no peptide) [3]: 5 s
Substance: MLL^3745, polypeptide construct consisting of residues 3745-3969 of human MLL1 (SEQ ID NO. 26) (from UniProt Q03164 3745-3969) (enzyme; other documents disagree on this pair)
